Test results as given in publication PMC3220703, “Effects of DPP-4 Inhibitors on the Heart in a Rat Model of Uremic Cardiomyopathy” (PLoS ONE, 2011).

Sequences of proteins named here, by UniProt entry; tags and fusion partners are left off. Residues count along the entry.
UniProt P14740, 37-767 limits assumed: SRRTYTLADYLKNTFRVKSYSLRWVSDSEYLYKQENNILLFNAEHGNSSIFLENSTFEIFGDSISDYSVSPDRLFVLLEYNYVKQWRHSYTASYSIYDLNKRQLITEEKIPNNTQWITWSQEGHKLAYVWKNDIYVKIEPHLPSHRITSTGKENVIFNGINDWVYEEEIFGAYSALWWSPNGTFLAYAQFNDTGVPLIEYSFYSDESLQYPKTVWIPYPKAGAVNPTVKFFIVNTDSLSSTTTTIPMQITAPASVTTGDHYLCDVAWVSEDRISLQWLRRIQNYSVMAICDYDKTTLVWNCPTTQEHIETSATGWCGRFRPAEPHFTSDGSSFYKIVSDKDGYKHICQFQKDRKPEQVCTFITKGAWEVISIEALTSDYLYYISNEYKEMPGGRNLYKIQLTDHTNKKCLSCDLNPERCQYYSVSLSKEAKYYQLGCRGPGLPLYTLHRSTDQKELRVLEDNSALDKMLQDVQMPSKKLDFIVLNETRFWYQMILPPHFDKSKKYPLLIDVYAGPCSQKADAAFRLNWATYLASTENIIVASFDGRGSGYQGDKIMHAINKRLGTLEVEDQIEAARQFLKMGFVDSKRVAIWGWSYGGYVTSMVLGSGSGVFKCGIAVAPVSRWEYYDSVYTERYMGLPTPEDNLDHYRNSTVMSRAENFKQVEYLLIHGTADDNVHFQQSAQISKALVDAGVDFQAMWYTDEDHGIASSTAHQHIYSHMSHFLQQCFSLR

Tests used:
5/6N rats = test: Markers of kidney function before and after drug administration in 5/6N rats; format: in vivo, rat; conditions: before drug administration, 7.0 µmol/kg group, mean±SEM
Description: Creatinine concentration was measured by the Jaffe colorimetric method. Creatinine clearance was estimated as described previously.
For each parameter, the log10-transformed values were analyzed separately using an ANOVA for repeated measurements with factors for experimental group and time as fixed effects. […] These statistical analyses were carried out with the software product SAS (SAS Institute, Cary, NC USA), version 9.2.

DPP-4 = DPP-4 (Rattus norvegicus, UniProt P14740); conditions: 7 µmol/kg oral; 24 h after administration; sham and 5/6N rats pooled; mean±SEM; control 82156±20673 (Table 1 gives fluorescence units)

| Compound | Osteopontin (5/6N rats) | DPP-4 activity (DPP-4) |
| --- | --- | --- |
| Cn1c(=O)cc(N2CCC[C@@H](N)C2)n(Cc2ccccc2C#N)c1=O [Alogliptin, alogliptin] | 50.9 ± 5.5 ng/mL | 50874±8958 |
| N[C@@H](CC(=O)N1CCn2c(nnc2C(F)(F)F)C1)Cc1cc(F)c(F)cc1F [Sitagliptin, sitagliptin] |  | 57219±21531 |
